Results: paper PMC6694038, “Pharmacogenomic–pharmacokinetic study of selective estrogen-receptor modulators with intra-patient dose escalation in breast cancer” (Breast Cancer (Tokyo, Japan), 2019)

Details: human, in vivo

## CN(C)CCOc1ccc(/C(=C(/CCCl)c2ccccc2)c2ccccc2)cc1 [TOR, toremifene]
  Total activity, regression mean: Current smoking status: −2265.1
